Measurements: PubChem BioAssay AID651780 (The Scripps Research Institute Molecular Screening Center, 2012)
The list shows a part of the results, in another mix than the full data. Activity calls are given as the source filed them. Rule as the data show it: active = inhibition above about 22%; inactive = the rest.

Assay: nonselective antagonists in TAAR1 counter-screen cells, counter-screen for hTAAR1 antagonist project, cell-based, fluorescence, calcium (AID 651780);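 also: CHO-Ga16 host cells stimulated with ATP at an EC80 level; 0% = agonist EC80 plus vehicle and 100% = vehicle without agonist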
Settings: counterscreen cell line, antagonist mode, at 3 µM, active compounds read high

SMILES | inhibition
Cc1ccccc1OP(=O)(Nc1ccccn1)Oc1ccccc1C | active: 23.7%
